Here are results for 103 compounds from PubChem BioAssay AID1446 (The Scripps Research Institute Molecular Screening Center, 2008).

A word on the inhibition: it is the drop in the measured response relative to a control, in per cent.

Each structure is given as a SMILES string. The list shows a part of the results, in another mix than the full data. Activity calls are given as the source filed them.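 Rule for the calls: active = inhibition above the campaign mean plus 3 SD over all tested compounds (cut at about 24% in these data); inactive = the rest.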

This assay can be described thus: reduced viability of JAK2V617F-dependent Ba/F3 cells, primary screen, JAK2V617F inhibitor project, cell-based, Ba/F3 EpoR-JAK2V617F, luminescence (AID 1446).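 Note: cytokine-independent growth of Ba/F3 cells driven by EpoR plus mutant JAK2; 0% = DMSO-treated cells and 100% = JAK inhibitor I control.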 Particulars: ATP luminescence, at 5.6 µM, hits give high values.
With `COP1(=S)c2c(C)nn(CCC#N)c2N=C(c2ccc(F)cc2)N1C` (stereo not drawn), the inhibition was inactive: -2.58%. For `O=C(COc1ccccc1)OC1CN2CCC1CC2` (stereo not drawn), the inhibition is inactive: -2.06%.

Turning to `CCOC(=O)c1ccc(NC(=O)C(C)(CCl)SC)cc1` (stereo not drawn), the inhibition was inactive: -2.54%. The figure for `CCC(C)N(CC(C)C)C(=S)SC(NC(C)=O)C(Cl)(Cl)Cl` (stereo not drawn) is inactive: 3.53%. Turning to `CCOC(=O)Nc1ccc([As](=O)(O)O)c(O)c1`, the inhibition was inactive: -1.87%. The figure for `Cc1cc(SC(NC(=O)c2ccccc2)C(Cl)(Cl)Cl)nc(C(C)C)n1` (stereo not drawn) is inactive: -0.09%; for `CCOC(=O)Nc1cccc([As](=O)(O)O)c1` it is inactive: 0.3%; for `Cc1cc(SC(NC=O)C(Cl)(Cl)Cl)ncn1` (stereo not drawn) it is inactive: 3.26%.

With `O=P(Nc1ccccn1)(c1cccc2ccccc12)c1cccc2ccccc12`, the inhibition is inactive: 2.47%. With `O=[N+]([O-])c1ccc(Nc2ccc(Oc3ccc([N+](=O)[O-])cc3[N+](=O)[O-])cc2)c([N+](=O)[O-])c1`, the inhibition was inactive: -3.05%. Take `C[As](=O)(O)c1cccc(C(=O)O)c1`: the inhibition is inactive: -4.43%.

`O=[As](O)(c1ccc(O)cc1)c1ccccc1O`: the inhibition was inactive: 0.7%. In the case of `Cc1ccc(OP(=O)(Nc2ccc([N+](=O)[O-])cn2)Oc2ccc(C)cc2)cc1`, the inhibition is inactive: -6.23%. As for `Cc1ccc2nc3c(c(C)c2c1)CC(C(Cl)Cl)S3` (stereo not drawn), the inhibition is inactive: -3.29%. Consider `ClCCSc1nnc(-c2cccnc2)o1`, for which the inhibition was inactive: 1.14%. Take `CC(C)c1ccc(OP(=O)(Nc2ccccn2)Oc2ccccc2F)cc1` (stereo not drawn): the inhibition is inactive: -1.42%. As for `CC(C)NC(=O)NP(=O)(Oc1ccccc1)Oc1ccccc1`, the inhibition was inactive: 1.9%. In the case of `CCN(CC)C(=S)SC(NC=O)C(Cl)(Cl)Cl` (stereo not drawn), the inhibition was inactive: 0.91%. Turning to `O=[N+]([O-])c1cc([N+](=O)[O-])c(-c2ccn[nH]2)s1`, the inhibition is inactive: 3.8%. Turning to `Cc1c2c(nc3ccccc13)SC(C(Cl)Cl)C2` (stereo not drawn), the inhibition is inactive: -3.36%.

As for `O=C(OC1CN2CCC1CC2)C12CC3CC(CC(C3)C1)C2` (stereo not drawn), the inhibition was inactive: 6.92%.

For `Cc1cc(=O)[nH]c(N[N+](=O)[O-])n1`, the inhibition was inactive: -1.59%.

As for `COc1ccc2nc(NP(=O)(c3ccccc3)c3ccccc3)sc2c1`, the inhibition is inactive: -1.22%.

On to `COc1cc(I)ccc1[As](=O)(O)O`, for which the inhibition is inactive: 0.32%.

On to `COc1ccc(N/C(=N/P(=O)(N2CCOCC2)N2CCOCC2)N2CCOCC2)cc1`, for which the inhibition is inactive: -0.8%. In the case of `O=C(OC1CN2CCC1CC2)c1ccc(Cl)cc1` (stereo not drawn), the inhibition was inactive: -2.52%. With `O=[As](O)(O)c1cccnc1` the figure was inactive: -1.51%; with `COc1cc(C(=O)NCC2(N3CCOCC3)CCCCC2)cc(Cl)c1OC(C)C`, inactive: -2.09%. As to `Cc1cccc(OCC(=O)OC2CN3CCC2CC3)c1` (stereo not drawn), the inhibition was inactive: -2.53%.

On to `O=[As](O)(c1cccc(O)c1)c1cccc(O)c1`, for which the inhibition is inactive: -2.37%. Turning to `Cc1ccc(NCCc2c([N+](=O)[O-])cc([N+](=O)[O-])cc2[N+](=O)[O-])cc1`, the inhibition is inactive: 1.19%. As for `Nc1cccc2c([As](=O)(O)O)cccc12`, the inhibition is inactive: -4.31%. Take `CCCOP(=S)(Nc1nc(N)cc(=O)[nH]1)OCCC`: the inhibition is inactive: 0.03%. The figure for `COc1cc(C2NCCC3(OCCO3)C2(C)C)cc(OC)c1OC` (stereo not drawn) is inactive: 3.85%; for `CCOP(=O)(Nc1cccc2ccccc12)OCC` it is inactive: 1.57%.

As for `CCOP1(=S)c2c(C)nn(CCC#N)c2N=C(c2ccccc2F)N1C` (stereo not drawn), the inhibition is inactive: -2.94%. With `O=P(Nc1nccs1)(Oc1ccccc1)Oc1ccccc1`, the inhibition is inactive: 1.14%.

As for `O=P(Nc1nccs1)(c1ccccc1)c1nc2ccccc2s1` (stereo not drawn), the inhibition is inactive: -1.44%.

Turning to `CS(=O)(=O)c1cc([N+](=O)[O-])c2no[n+]([O-])c2c1`, the inhibition was inactive: -6.5%. For the compound `O=C(O)COc1ccc([As](=O)(O)O)cc1[N+](=O)[O-]`, the inhibition is inactive: -1.79%. For the compound `Nc1ccccc1[As](=O)(O)c1ccccc1`, the inhibition was inactive: 0.93%.

For `CCOP1(=S)c2c(C)nn(CCC#N)c2N=C(c2ccc(F)cc2)N1C` (stereo not drawn), the inhibition is inactive: -1.51%. With `O=[N+]([O-])c1ccc2c(c1)nnn2O` the figure was inactive: -3.11%; with `Cc1nn(-c2ccccc2)c2c1P(=O)(N1CCOCC1)N(C)C(c1ccccc1)=N2` (stereo not drawn), inactive: 2.62%; with `CC1CCC(C(C)C)C(OP(=O)(Nc2ccccn2)c2ccccc2)C1` (stereo not drawn), inactive: -0.46%. For `CN(C)C1(CNC(=O)c2ccc(S(C)(=O)=O)cc2)CCCCC1`, the inhibition was inactive: -2.3%. For `O=C(/C=C/c1ccccc1)OC1CN2CCC1CC2` (stereo not drawn), the inhibition was inactive: 5.65%. With `O=P1(Nc2ncccn2)COc2ccccc2OC1`, the inhibition was inactive: -3.48%. With `Nc1cccc([As](=O)(O)c2ccccc2)c1` the figure was inactive: 0.98%; with `Cc1ccc(OCC(=O)OC2CN3CCC2CC3)cc1` (stereo not drawn), inactive: -1.07%. The figure for `O=[As](O)(c1cccs1)c1cccs1` is inactive: -0.19%; for `O=P1(Nc2ccc(Br)cn2)COc2ccccc2OC1` it is inactive: -0.89%; for `O=P1(Nc2ccccn2)COc2ccccc2OC1` it is inactive: -1.26%. `CCOP(=O)(Nc1ccc(C)cn1)OCC`: the inhibition is inactive: -1.06%. As for `Clc1n[nH]nc1-c1nn[nH][15n]1`, the inhibition was inactive: 1.82%. With `CC(C)(C)C(=O)NC(Sc1ncccn1)C(Cl)(Cl)Cl` (stereo not drawn) the figure was inactive: -1.51%; with `CN(C(=O)Cc1ccc(Cl)c(Cl)c1)[C@@H]1CCCC[C@H]1N1CCCC1`, inactive: -5.76%; with `CC(C)/C=N\N=C(\N)N[N+](=O)[O-]`, inactive: 0.92%.

Turning to `O=[As](O)(c1ccccc1Br)c1ccccc1Br`, the inhibition is inactive: -3.28%. With `CC1(CBr)Cn2c(nc3ccccc3c2=O)S1` (stereo not drawn) the figure was inactive: -3.24%; with `O=P(Nc1nccs1)(c1ccccc1)c1ccccc1`, inactive: 7.24%; with `CC(C)C(=O)NC(Sc1ccccc1)C(Cl)(Cl)Cl` (stereo not drawn), inactive: -3.29%. Turning to `c1nnnn1CCn1cnnn1`, the inhibition is inactive: -2.64%. As for `O=P(Nc1ccccn1)(c1ccc(Br)cc1)c1ccc(Br)cc1`, the inhibition was inactive: 3.09%.

For `O=P(Nc1nc2ccccc2s1)(c1ccccc1)c1ccccc1`, the inhibition was inactive: -3.61%. Regarding `O=[As](O)(c1ccccc1)c1ccc(O)cc1`, the inhibition is inactive: 2.12%. For the compound `CC(=O)NC(SC(=S)N(C)C)C(Cl)(Cl)Cl` (stereo not drawn), the inhibition is inactive: -0.37%.

On to `O=[N+]([O-])c1ncn(CCn2cnc([N+](=O)[O-])n2)n1`, for which the inhibition is inactive: -1.17%. Regarding `O=C(OC1CN2CCC1CC2)c1cccc(Cl)c1` (stereo not drawn), the inhibition is inactive: -0.97%. Turning to `C(Cc1nn[nH]n1)Cc1nn[nH]n1`, the inhibition was inactive: 0.37%. For the compound `Nc1ccc([As](=O)(O)c2ccc([N+](=O)[O-])cc2)cc1`, the inhibition is inactive: -3.3%. Consider `c1ccc(-c2nn[nH]n2)c(-c2nn[nH]n2)c1`, for which the inhibition is inactive: -1.49%. Regarding `Cc1ccc(NP(=O)(Oc2cccc(C)c2)Oc2cccc(C)c2)nc1`, the inhibition is inactive: -4.39%. `CCOC(=O)NC(Sc1ccccc1)C(Cl)(Cl)Cl` (stereo not drawn): the inhibition was inactive: -0.51%. For `O=C(NC1CCS(=O)(=O)C1)NP(=S)(Oc1ccccc1)Oc1ccccc1` (stereo not drawn), the inhibition is inactive: 0.21%. The figure for `CCNC(=S)/N=C(\N)N[N+](=O)[O-]` is inactive: 0.89%. With `CCC(=O)N1C2C3N(C(=O)CC)C1C1N(C(=O)CC)C(C(N1C(=O)CC)N3C(=O)CC)N2C(=O)CC`, the inhibition is inactive: -0.74%.

Consider `COC(=O)c1cc2c(s1)N=C(c1ccccc1)N(C)P2(=O)N1CCOCC1` (stereo not drawn), for which the inhibition was inactive: -0.64%. For `CC(=O)NC(SC(=S)N(CC(C)C)CC(C)C)C(Cl)(Cl)Cl` (stereo not drawn), the inhibition was active: 47.4%. As to `Cc1ccc(OP(=O)(Nc2ccccn2)Oc2ccc(C)cc2)cc1`, the inhibition was inactive: -5.69%.

`Cc1ccccc1OP(=O)(Nc1ccccn1)Oc1ccccc1C`: the inhibition is inactive: -3.4%.

`O=c1c2cc([N+](=O)[O-])ccc2[nH]c2c([N+](=O)[O-])cc([N+](=O)[O-])cc12`: the inhibition is inactive: -2.14%. Consider `CN(C)C(=O)Oc1noc2ccccc12`, for which the inhibition was inactive: -3.89%. As to `O=P1(Nc2nc3ccc(Cl)cc3s2)COc2ccccc2O1` (stereo not drawn), the inhibition was inactive: 1.19%. Regarding `CCOc1ccc(C2=NCC(CBr)S2)cc1` (stereo not drawn), the inhibition is inactive: 2.56%. For the compound `CC(C)(C)C(=O)NC(Sc1ccccc1)C(Cl)(Cl)Cl` (stereo not drawn), the inhibition was inactive: -3.19%. As for `CC(=O)Nc1ccc([As](=O)(O)O)c(O)c1`, the inhibition is inactive: -1.26%.

For the compound `CC(=O)Nc1ccc(Oc2c([N+](=O)[O-])cc([N+](=O)[O-])cc2[N+](=O)[O-])cc1`, the inhibition is inactive: 2.17%. For the compound `Cc1ccc(N/C(=N/P(=O)(N2CCOCC2)N2CCOCC2)N2CCOCC2)cc1`, the inhibition is inactive: 2.62%. In the case of `NC(=O)c1cc([N+](=O)[O-])cc([N+](=O)[O-])c1N`, the inhibition is inactive: -0.1%. For `CN1CCCC(OC(=O)C(c2ccccc2)c2ccccc2)C1` (stereo not drawn), the inhibition is inactive: -0.12%.

As to `Clc1ccc(Cl)c(NC2=NCC(CBr)S2)c1` (stereo not drawn), the inhibition was inactive: -0.31%.

Regarding `COc1ccccc1OP(=O)(Nc1ccc(C)cn1)Oc1ccccc1OC`, the inhibition was inactive: -4.64%. On to `Cc1ccc(OP(=O)(Nc2nccs2)Oc2ccc(C)cc2)cc1`, for which the inhibition is inactive: -0.95%. `Oc1ccccc1CNc1ccccn1`: the inhibition was inactive: -0.14%. As for `O=C(NC(Sc1ccncn1)C(Cl)(Cl)Cl)c1ccccc1` (stereo not drawn), the inhibition is inactive: -2.09%. `Cc1c2non([O-])c-2c(C)[n+](=O)[n+]1[O-]`: the inhibition was inactive: 3.5%. With `Nc1cc(N)c2nonc2c1[N+](=O)[O-]` the figure was inactive: -1.03%; with `CC(C)CC(=O)NC(Sc1ccc(Cl)cc1)C(Cl)(Cl)Cl` (stereo not drawn), inactive: -1.27%; with `O=P(Nc1nc2ccc(Cl)cc2s1)(c1ccccc1)c1ccccc1`, inactive: -1.06%.

Take `CC(=O)Nc1ccc([As](=O)(O)O)cc1`: the inhibition is inactive: -1.94%. The figure for `O=C(O)c1ccccc1[As](=O)(O)O` is inactive: -4.33%. The figure for `Cc1cc(SC(NC(=O)c2ccc(F)cc2)C(Cl)(Cl)Cl)ncn1` (stereo not drawn) is inactive: -2.04%.
